Curated experimental data: properties

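These are experimental values that the OPERA curators gathered from public databases to train and test their QSAR models. The files give a single number for a compound and property, which may rest on several reports. Method, purity and exact conditions of the single measurements are not given. A value may pool stereoisomers or salt forms, and the file does not say which form was measured. Unmarked limits or estimates from the upstream databases cannot be ruled out.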

Melting points are in °C. logP is the log10 of the octanol-water partition coefficient; higher is more lipophilic. Solubility in water is on a log10 molar scale (set defined at 25 °C). Vapor pressures (log10 mmHg) refer to near room temperature, 15 to 30 °C; higher is more volatile. Henry's law constant (air-water partitioning) is log10 of atm·m3/mol, nominally at 25 °C. fu is the fraction unbound in human plasma, from 0 to 1. Intrinsic clearance (human, µL/min per 10^6 hepatocytes): higher is faster turnover, and 0 stands for none detected.

CNC(=N[N+](=O)[O-])NCC1CCOC1 (stereo unspecified) is reported with water solubility -0.706 (log10 mol/L) and log VP -7.893 (log10 mmHg). FC(C(F)C(F)(F)C(F)(F)F)C(F)(F)F (stereo unspecified) is reported with logP 2.7 and water solubility -3.883 (log10 mol/L) and log VP 2.354 (log10 mmHg). The entry for CCOP(=O)(C(=O)c1c(C)cc(C)cc1C)c1ccccc1 (stereo unspecified) lists logP 2.91 and water solubility -3.956 (log10 mol/L) and log VP -5.803 (log10 mmHg). For O=Nc1ccc(O)cc1 the data give MP 133 °C and log VP -4.62 (log10 mmHg). Listed for Brc1ccccc1-c1ccccc1Br: logP 4.6 and water solubility -6.101 (log10 mol/L) and log VP -4.155 (log10 mmHg).

The entry for O=c1sc2ccccc2c(O)c1C1CC(c2ccc(-c3ccc(Br)cc3)cc2)Cc2ccccc21 (stereo unspecified) lists logP 5.17 and water solubility -6.14 (log10 mol/L) and log VP -6.256 (log10 mmHg). CCCCCCCCCCCC#N is reported with logP 4.9 and water solubility -5.29 (log10 mol/L). The entry for C[C@@H](Cc1ccccc1)NC(=O)[C@@H](N)CCCCN lists MP 121 °C and logP 1.06 and water solubility -3.478 (log10 mol/L). The entry for COCC(C)N(C(=O)CCl)c1c(C)csc1C (stereo unspecified) lists fraction unbound 0.2316 and intrinsic clearance 19.92 µL/min/10^6 cells. For CS(=O)(=O)c1cc(C(F)(F)F)ccc1C(=O)c1cnoc1C1CC1 the data give fraction unbound 0.01605 and intrinsic clearance 20.42 µL/min/10^6 cells.

For CCc1cccc(C)c1N the data give water solubility -1.706 (log10 mol/L) and log VP -1.274 (log10 mmHg). COc1ccc2cccc(CCN)c2c1.Cl is reported with MP 216.1 °C and logP 1.071. The entry for O=C(O)C(F)(F)C(F)(F)C(F)(F)C(F)(F)C(F)(F)F lists water solubility -4.03 (log10 mol/L) and log Henry constant -5.038 (log10 atm·m3/mol) and intrinsic clearance 0 µL/min/10^6 cells. CCN(CCCl)c1ccc(N=Nc2c(Cl)cc([N+](=O)[O-])cc2Cl)c(C)c1 has MP 125.5 °C and water solubility -7.749 (log10 mol/L). The entry for CCCCCOC(N)=O lists MP 94 °C and water solubility -1.47 (log10 mol/L).

CCOC1=CC2=CC[C@@H]3[C@H](CC[C@]4(C)C(=O)CC[C@@H]34)[C@@]2(C)CC1 has logP 6.4 and water solubility -7.14 (log10 mol/L) and log VP -8.303 (log10 mmHg). The entry for CC1([C@@]2(O)CC[C@H]3[C@@H]4C=CC5=CC(=O)C=C[C@]5(C)[C@H]4CC[C@@]32C)OCCO1 lists logP 3.47 and water solubility -4.341 (log10 mol/L). For C=CC(=O)OC(C)(C)C the data give logP 2.31 and log VP 1.176 (log10 mmHg). C[C@H]1CC(=O)C=C2CC[C@H]3[C@@H]4CC[C@H](O)[C@@]4(C)CC[C@@H]3[C@]21C is reported with logP 2.92 and water solubility -3.526 (log10 mol/L). For CC(C)(c1cc(Br)c(OCC2CO2)c(Br)c1)c1cc(Br)c(OCC2CO2)c(Br)c1 (stereo unspecified) the data give MP 114.1 °C and logP 6.115 and water solubility -7.395 (log10 mol/L) and log VP -6.779 (log10 mmHg).

CC(C)C(=O)OOC(C)(C)C is reported with logP 2.68 and water solubility -1.607 (log10 mol/L). The entry for Cc1ccc(-c2c(Cl)nc(C#N)n2S(=O)(=O)N(C)C)cc1 lists water solubility -6.45 (log10 mol/L) and fraction unbound 0.051 and intrinsic clearance 10 µL/min/10^6 cells. CCCCCCOC(N)=O has MP 62 °C and water solubility -1.92 (log10 mol/L). FC(F)OCC(F)(F)C(F)(F)F has water solubility -3.26 (log10 mol/L) and log VP 2.527 (log10 mmHg). For CCCCC(O)(Cn1cncn1)c1ccc(Cl)cc1Cl (stereo unspecified) the data give log Henry constant -8.483 (log10 atm·m3/mol) and fraction unbound 0.04083 and intrinsic clearance 16.22 µL/min/10^6 cells.

CCCCCCC(C)(C)c1cc(O)c2c(c1)OC(C)(C)[C@@H]1CCC(=O)C[C@@H]21 has logP 6.8 and water solubility -5.878 (log10 mol/L). Clc1ccc(Cl)c(-c2cccc(Cl)c2Cl)c1 is reported with MP 47 °C and log VP -4.015 (log10 mmHg). The entry for FC(F)C(F)(F)F lists logP 1.48 and water solubility -1.453 (log10 mol/L). The entry for O=C(O)CC(CP1(=O)Oc2ccccc2-c2ccccc21)C(=O)O (stereo unspecified) lists logP 1.8 and water solubility -2.814 (log10 mol/L) and log VP -3.648 (log10 mmHg). CNC(=O)Oc1cc(C)c(C)cc1Cl is reported with MP 124 °C and water solubility -3.02 (log10 mol/L).

For CC1(C)C(C(=O)OC(C#N)c2cccc(Oc3ccccc3)c2)C1(C)C (stereo unspecified) the data give water solubility -6.025 (log10 mol/L) and fraction unbound 0.00644. Listed for CN(C)C(=O)C(c1ccccc1)c1ccccc1: logP 2.17 and fraction unbound 0.301 and intrinsic clearance 0 µL/min/10^6 cells. The entry for O=S(=O)(Oc1ccc(Cl)cc1)c1ccc(Cl)cc1 lists water solubility -5.01 (log10 mol/L) and log VP -5.726 (log10 mmHg) and log Henry constant -6.786 (log10 atm·m3/mol).

5 of these entries, quoted again:

For CC1([C@@]2(O)CC[C@H]3[C@@H]4C=CC5=CC(=O)C=C[C@]5(C)[C@H]4CC[C@@]32C)OCCO1 the data give logP 3.47 and water solubility -4.341 (log10 mol/L).
For COCC(C)N(C(=O)CCl)c1c(C)csc1C (stereo unspecified) the data give fraction unbound 0.2316 and intrinsic clearance 19.92 µL/min/10^6 cells.
For C[C@@H](Cc1ccccc1)NC(=O)[C@@H](N)CCCCN the data give MP 121 °C and logP 1.06 and water solubility -3.478 (log10 mol/L).
For O=c1sc2ccccc2c(O)c1C1CC(c2ccc(-c3ccc(Br)cc3)cc2)Cc2ccccc21 (stereo unspecified) the data give logP 5.17 and water solubility -6.14 (log10 mol/L) and log VP -6.256 (log10 mmHg).
For CCCCCCOC(N)=O the data give MP 62 °C and water solubility -1.92 (log10 mol/L).

Source: data files of OPERA 2.9 (Mansouri et al.), github.com/kmansouri/OPERA.